Assay results: patent publication US20230355780A1, “Synthetic Implantable Composition with Immunomodulatory Properties” (priority 2022, published 2023)

Assay: In vitro hydrolytic degradation in PBS (pH 7.4), 37° C.

poly(2-butyrate trimethylene carbonate-co-T) [P(BtT-T)-40-60]
change in pH of the degradation medium: remained unchanged

poly(2-hydroxy trimethylene carbonate-co-T) [P(HT-T)-40-60]
change in pH of the degradation medium: largest decrease
